This is an account of results in patent publication US9023386B2, “Microspheres comprising nanocapsules containing a lipophilic drug” (Yissum Research Development Company of the Hebrew …, priority 2006, dated 2015).

The series can be described thus: In vitro release kinetics of DXPL from microparticles. Format: physicochemical. To be noted: 10% acetonitrile in phosphate buffer pH 7.4, different EUDRAGIT blend coatings. Here is the method:
Owing to tacrolimus detection limit restrictions when sink conditions prevail, the in vitro kinetic experiments were carried out with DXPL using the ultrafiltration technique without any pressure [Magenhiem B, et al. A new in vitro technique for the evaluation of drug release profile from colloidal carriers-ultrafiltration technique at low pressure. Int J Pharm 94:115-123 (1993).].
The ultrafiltration cell device AMICON (Amicon Corp, Danvers, Mass., USA), was used. The filter used was ISOPORE™ 8.0 μm TEPT (Millipore, Bedford, Mass., USA). In this study sink conditions release were matched. […] At given time intervals 0.5 ml sample of the release medium was collected through the 8.0 μm filter which allowed nanocapsules to diffuse through such a filter. Then, 0.5 ml of methanol was added and vortexed to solubilize the nanocapsules. Thereafter, 3 ml of dichloromethane were added and the mixture was vortexed vigorously followed by centrifugation at 4000 rpm over 5 minutes. After centrifugation, the dichloromethane layer (lower layer) was transferred to a clean tube and evaporated under air to dryness. The residue was dissolved in 200 μl of methanol, and 50 μl were injected to HPLC under the conditions previously described.

With Dexamethasone palmitate [DXPL], the “DXPL release profile from microspheres, in words” value is recorded as “faster with the EUDRAGIT L:RS, 75:25 than with the RS:L, 75:25”.
